## Ab-14 light chain CDR variants: yeast mating affinities

Target: peptide PDVDLGDISGINAS, taken from heptad repeat 2 (HR2) of SARS-CoV-2 spike.

Ab-14 is the parent antibody, in scFv form: VH, then a (GGGGS)3 linker, then VL. The heavy chain is unchanged in all variants.
VH: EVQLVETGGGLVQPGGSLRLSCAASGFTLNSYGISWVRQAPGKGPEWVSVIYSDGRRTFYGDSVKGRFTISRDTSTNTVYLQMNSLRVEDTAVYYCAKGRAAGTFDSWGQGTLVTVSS
VL: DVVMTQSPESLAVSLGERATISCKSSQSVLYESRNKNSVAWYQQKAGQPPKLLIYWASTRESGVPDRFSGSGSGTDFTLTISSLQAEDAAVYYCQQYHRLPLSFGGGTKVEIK

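Designed CDR sequences, proposed from the first random library and measured here. Group labels follow the data file (Ctrl: baseline library sampled from a position-specific scoring matrix, with some repeated check sequences; Rand: our label for a block that the file lists under HC and that is probably the random mutants of the ten best first-round binders; GP: Gaussian process model; HC: hill climbing; Gen: genetic algorithm; Gibbs: Gibbs sampling; a sequence that several methods proposed may carry one label only). AlphaSeq pools MATa yeast showing the antibodies with MATalpha yeast showing the peptide. After mating in shaken culture at 30 °C for 16 h, diploids were selected and their barcode pairs sequenced. Scores were corrected for input abundance and mapped to Kd with protein pairs of known affinity run in the same pool. Mating was done six times.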

Positions count from residue 1 of the parent VL; S25Q puts Q in place of S. This list holds designs with at most six substitutions. Kd is apparent (estimated from mating counts) and averaged on the log scale over replicates with a signal. Smaller is tighter. "no signal" marks a missing value. The strain was present, yet no cells mated with the target were sequenced in any replicate, which points to weak or no binding. Empty control strains, which show no peptide, gave a signal in 4% of pairings with all light chain designs; the median was 430 nM and 95% of these signals were weaker than 38 nM. No background was subtracted. Values of this round are not directly comparable with the first-round values of the same sequences. The parent sequence was in this pool as ten entries: three were never detected, three once, and four in most replicates, with averages from 2.2 nM to 240 nM. The authors' rule: three or more of the six replicates give a measured affinity, fewer mean a poor binder.

The variant S25Q Y31M W56E [GP_Gen] showed 860 pM (6 of 6 replicates).
The variant S25I S62Q [Ctrl] showed 14 nM (6 of 6 replicates).
The variant S26Y Q27I V29F W56E [GP_HC] showed 2.7 nM (6 of 6 replicates).
The variant S25M R34F Q96L [Ctrl] showed 200 nM (3 of 6 replicates).
The variant K24L S25I L30E N35D W56N E61L [GP_Gibbs] showed 1.6 nM (6 of 6 replicates).
The variant R34D W56E E61D [Ctrl] showed 3.3 nM (6 of 6 replicates).
The variant S25L S26M W56H T59L S62D [GP_HC] showed 1.5 nM (6 of 6 replicates).
The variant S25V S26L L30K S33G W56H S62D [GP_HC] showed 3.1 nM (6 of 6 replicates).
The variant S25M S26E W56G [GP_HC] showed 610 pM (6 of 6 replicates).
The variant S25L S38Q W56G A57S E61M [GP_Gibbs] showed 1.8 nM (6 of 6 replicates).
The variant S25C Y31Q W56E T59Q [GP_Gibbs] showed 700 pM (6 of 6 replicates).
The variant Q27W R34L W56H S62D [GP_HC] showed 1.6 nM (6 of 6 replicates).
The variant Q27I R34P W56E [GP_HC] showed 3.5 nM (6 of 6 replicates).
The variant S25L S33M W56N [GP_Gen] showed 1.2 nM (6 of 6 replicates).
The variant Q27I V29Y W56E S103M [GP_HC] showed 490 pM (6 of 6 replicates).
The variant S25L S28M V29M K36A W56N S62E [GP_Gibbs] showed 320 pM (6 of 6 replicates).
The variant S26Q W56H E61M S62D [GP_HC] showed 3.3 nM (6 of 6 replicates).
The variant K36Q T59G [Ctrl] showed no signal (0 of 6 replicates).
The variant S25F N35T W56N Q96W H98E [GP_HC] showed 7.3 nM (6 of 6 replicates).
The variant S25L S26P W56H Q96S [GP_HC] showed 1.2 nM (6 of 6 replicates).
The variant V29Y R34M W56N [GP_HC] showed 910 pM (6 of 6 replicates).
The variant V29W W56G H98F L102I [Rand] showed 8.6 nM (6 of 6 replicates).
The variant K24Y Q27D S33A W56S T59M [Ctrl] showed 74 nM (5 of 6 replicates).
The variant S33D W56S E61I R99G [Ctrl] showed 20 nM (6 of 6 replicates).
The variant N37Q T59Q S62P S103A [Ctrl] showed no signal (0 of 6 replicates).
The variant K24L Q27I V29Y R34P W56E S62Q [GP_HC] showed 280 nM (1 of 6 replicates).
The variant S25M Q27M V29W H98A [Ctrl] showed 4.8 nM (6 of 6 replicates).
The variant S25M Q27I V29Y Y31E W56E [GP_HC] showed 1.4 nM (6 of 6 replicates).
The variant S25A S26Q V29D W56S E61S S103Q [GP_Gibbs] showed 3.2 nM (6 of 6 replicates).
The variant S25V V29N Y31G N35M W56H T59Q [GP_Gibbs] showed 1.5 nM (6 of 6 replicates).
The variant S25Y R34N H98D P101A [Ctrl] showed no signal (0 of 6 replicates).
The variant S25I V29W K36S W56E S62D Q96D [GP_Gibbs] showed 760 pM (6 of 6 replicates).
The variant L30S E32S N37W W56Q S103C [Ctrl] showed 210 nM (2 of 6 replicates).
The variant Q27L T59F [Ctrl] showed 140 nM (4 of 6 replicates).
The variant S25M K36A W56K Q95Y [Ctrl] showed 4.6 nM (6 of 6 replicates).
The variant L30P W56R [Ctrl] showed 4.7 nM (6 of 6 replicates).
The variant S25I L30E R34V W56G L100D [Ctrl] showed 200 nM (6 of 6 replicates).
The variant V29E L30K Y31F W56D [GP_HC] showed 1.5 nM (6 of 6 replicates).
The variant S25L K36F W56N E61L [GP_Gen] showed 730 pM (6 of 6 replicates).
The variant W56S T59H L100E [Ctrl] showed 77 nM (2 of 6 replicates).
The variant S25L S38N [Ctrl] showed 1.1 nM (6 of 6 replicates).

Extract of 3 entries:

With V29W W56G H98F L102I [Rand] the result was 8.6 nM (6 of 6 replicates).
With S25A S26Q V29D W56S E61S S103Q [GP_Gibbs] the result was 3.2 nM (6 of 6 replicates).
With S25L S26P W56H Q96S [GP_HC] the result was 1.2 nM (6 of 6 replicates).

From the AlphaSeq antibody data of Li et al. 2023 (doi:10.1038/s41467-023-39022-2), copy in the FLAb collection.